Laboratory results: patent publication US9492460B2, “Carbazole compounds useful as bromodomain inhibitors” (Bristol-Myers Squibb Company, priority 2013, dated 2016)

Target: bromodomain BRD4 (44-168), BRD4 (333-460), and BRD4 (1-477 or 44-460) (Homo sapiens, UniProt O60885)
Assay: Time Resolved Fluorescence Resonance Energy Transfer (TR-FRET) binding assay
Conditions: read-out: FRET BRD4 IC50; one of the FRET assays described

Row | SMILES | IC50
1 | Cc1noc(C)c1-c1cc(C(N)=O)c2c3ccc(C(C)(C)O)cc3n(C(CCC(F)(F)F)c3ccccc3C(F)(F)F)c2c1 (single isomer, unassigned) | < 0.05 µM
2 | Cc1noc(C)c1-c1cc(C(N)=O)c2c3ccc(C(C)(C)O)cc3n(C(c3c(F)cc(F)cc3F)C3CCOCC3)c2c1 (single isomer, unassigned) | < 0.05 µM
3 | Cc1noc(C)c1-c1cc(C(N)=O)c2c3ccc(C(C)(C)O)cc3n(C(c3c(F)cccc3F)C3CCOCC3)c2c1 (single isomer, unassigned) | < 0.05 µM
4 | Cc1noc(C)c1-c1cc(C(N)=O)c2c3ccc(C(C)(C)O)cc3n(C(c3ccccc3F)C3CCOCC3)c2c1 (single isomer, unassigned) | < 0.05 µM

Second part, the compound after the results:

Row | IC50 | SMILES
5 | < 0.05 µM | Cc1noc(C)c1-c1cc(C(N)=O)c2c3ccc(C(C)(C)O)cc3n(C(CCC(F)(F)F)c3ccccc3Cl)c2c1 (single isomer, unassigned)
6 | < 0.05 µM | Cc1noc(C)c1-c1cc(C(N)=O)c2c3ccc(C(C)(C)O)cc3n(C(CCC(F)(F)F)c3ccccn3)c2c1 (single isomer, unassigned)
7 | < 0.05 µM | Cc1noc(C)c1-c1cc(C(N)=O)c2c3ccc(C(C)(C)O)cc3n(C(c3ccc(F)cc3F)C3CCOCC3)c2c1 (single isomer, unassigned)
